The source of these data is ChEMBL document CHEMBL6074668 (J Med Chem, 2024).

The chains behind the UniProt entries cited, without tags or fusion partners. Where a name states a change or a piece, a line headed by the entry shows the natural chain unless it says otherwise.
UniProt P25100, whole entry: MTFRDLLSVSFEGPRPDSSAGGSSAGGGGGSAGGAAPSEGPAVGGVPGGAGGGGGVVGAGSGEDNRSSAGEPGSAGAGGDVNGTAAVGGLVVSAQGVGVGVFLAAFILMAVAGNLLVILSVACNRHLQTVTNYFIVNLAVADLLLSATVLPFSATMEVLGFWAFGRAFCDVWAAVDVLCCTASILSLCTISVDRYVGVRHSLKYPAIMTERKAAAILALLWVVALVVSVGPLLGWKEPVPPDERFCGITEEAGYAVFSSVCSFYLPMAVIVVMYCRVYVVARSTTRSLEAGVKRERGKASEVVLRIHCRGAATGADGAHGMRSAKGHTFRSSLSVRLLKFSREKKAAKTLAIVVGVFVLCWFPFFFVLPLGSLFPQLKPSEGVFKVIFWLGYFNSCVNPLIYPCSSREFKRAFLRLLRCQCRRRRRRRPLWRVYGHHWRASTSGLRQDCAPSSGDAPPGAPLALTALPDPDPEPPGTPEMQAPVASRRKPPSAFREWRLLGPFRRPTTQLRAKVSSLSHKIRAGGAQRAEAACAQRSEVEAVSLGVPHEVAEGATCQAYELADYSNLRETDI
UniProt P41143, whole entry: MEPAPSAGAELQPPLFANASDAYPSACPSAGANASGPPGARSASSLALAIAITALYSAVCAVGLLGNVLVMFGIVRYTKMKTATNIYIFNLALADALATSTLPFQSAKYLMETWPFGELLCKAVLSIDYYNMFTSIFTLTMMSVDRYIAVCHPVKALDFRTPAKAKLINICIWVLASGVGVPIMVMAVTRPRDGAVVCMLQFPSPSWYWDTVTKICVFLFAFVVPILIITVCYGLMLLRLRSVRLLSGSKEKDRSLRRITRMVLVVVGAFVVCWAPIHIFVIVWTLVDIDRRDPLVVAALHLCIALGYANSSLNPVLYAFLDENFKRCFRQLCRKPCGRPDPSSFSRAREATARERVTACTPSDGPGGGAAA
UniProt P23975, whole entry: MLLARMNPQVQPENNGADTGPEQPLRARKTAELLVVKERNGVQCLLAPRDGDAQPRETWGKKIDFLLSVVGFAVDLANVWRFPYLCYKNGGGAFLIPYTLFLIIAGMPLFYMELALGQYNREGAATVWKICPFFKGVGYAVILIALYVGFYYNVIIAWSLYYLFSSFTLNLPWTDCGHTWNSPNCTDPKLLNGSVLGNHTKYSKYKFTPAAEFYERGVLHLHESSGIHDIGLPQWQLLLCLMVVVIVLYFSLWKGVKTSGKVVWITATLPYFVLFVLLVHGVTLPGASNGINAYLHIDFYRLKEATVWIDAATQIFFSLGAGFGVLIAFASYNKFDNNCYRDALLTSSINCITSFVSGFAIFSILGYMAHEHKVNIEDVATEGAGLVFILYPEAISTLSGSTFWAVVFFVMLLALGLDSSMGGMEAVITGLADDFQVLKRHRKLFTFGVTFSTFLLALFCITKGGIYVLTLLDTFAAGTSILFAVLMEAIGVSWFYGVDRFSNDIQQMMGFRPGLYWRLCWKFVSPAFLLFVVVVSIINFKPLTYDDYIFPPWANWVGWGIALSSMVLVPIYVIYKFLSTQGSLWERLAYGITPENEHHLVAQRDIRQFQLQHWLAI
UniProt P35368, whole entry: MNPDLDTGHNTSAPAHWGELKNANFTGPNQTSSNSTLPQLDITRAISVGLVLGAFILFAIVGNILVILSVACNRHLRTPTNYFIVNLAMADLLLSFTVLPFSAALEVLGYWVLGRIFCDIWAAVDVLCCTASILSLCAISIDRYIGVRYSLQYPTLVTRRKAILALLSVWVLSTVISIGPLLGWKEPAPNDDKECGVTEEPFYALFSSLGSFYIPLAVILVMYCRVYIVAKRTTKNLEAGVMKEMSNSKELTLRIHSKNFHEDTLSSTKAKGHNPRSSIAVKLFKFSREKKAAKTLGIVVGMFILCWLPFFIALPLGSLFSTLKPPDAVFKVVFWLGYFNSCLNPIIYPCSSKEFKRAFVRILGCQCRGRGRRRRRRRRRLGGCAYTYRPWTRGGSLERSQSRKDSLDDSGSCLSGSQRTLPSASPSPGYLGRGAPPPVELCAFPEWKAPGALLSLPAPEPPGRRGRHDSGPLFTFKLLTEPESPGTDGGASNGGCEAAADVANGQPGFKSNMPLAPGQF
UniProt P08913, whole entry: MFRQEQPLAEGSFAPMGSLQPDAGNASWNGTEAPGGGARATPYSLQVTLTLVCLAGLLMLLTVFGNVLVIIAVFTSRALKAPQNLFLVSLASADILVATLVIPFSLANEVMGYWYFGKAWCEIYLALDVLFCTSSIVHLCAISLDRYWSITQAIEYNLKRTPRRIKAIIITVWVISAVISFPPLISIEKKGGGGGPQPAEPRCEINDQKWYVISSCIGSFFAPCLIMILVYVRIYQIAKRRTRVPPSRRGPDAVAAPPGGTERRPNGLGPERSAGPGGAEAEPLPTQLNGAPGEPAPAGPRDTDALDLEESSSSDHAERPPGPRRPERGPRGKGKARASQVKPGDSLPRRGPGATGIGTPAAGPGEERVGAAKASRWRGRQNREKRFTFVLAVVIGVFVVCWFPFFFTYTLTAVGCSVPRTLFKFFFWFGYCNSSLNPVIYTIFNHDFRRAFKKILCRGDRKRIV
UniProt P41595, whole entry: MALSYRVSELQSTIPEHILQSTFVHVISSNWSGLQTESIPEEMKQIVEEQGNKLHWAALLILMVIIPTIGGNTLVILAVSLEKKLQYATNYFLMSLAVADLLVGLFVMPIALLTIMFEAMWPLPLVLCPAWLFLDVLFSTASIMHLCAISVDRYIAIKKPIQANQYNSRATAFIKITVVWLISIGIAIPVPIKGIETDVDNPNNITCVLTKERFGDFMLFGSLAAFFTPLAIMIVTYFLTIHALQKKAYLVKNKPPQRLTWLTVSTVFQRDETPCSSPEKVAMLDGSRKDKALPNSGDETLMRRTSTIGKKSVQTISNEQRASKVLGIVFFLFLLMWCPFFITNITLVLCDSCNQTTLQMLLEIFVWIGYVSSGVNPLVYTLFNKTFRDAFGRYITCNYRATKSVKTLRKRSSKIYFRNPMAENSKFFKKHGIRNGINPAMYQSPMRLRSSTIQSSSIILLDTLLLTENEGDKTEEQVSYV
UniProt P41145: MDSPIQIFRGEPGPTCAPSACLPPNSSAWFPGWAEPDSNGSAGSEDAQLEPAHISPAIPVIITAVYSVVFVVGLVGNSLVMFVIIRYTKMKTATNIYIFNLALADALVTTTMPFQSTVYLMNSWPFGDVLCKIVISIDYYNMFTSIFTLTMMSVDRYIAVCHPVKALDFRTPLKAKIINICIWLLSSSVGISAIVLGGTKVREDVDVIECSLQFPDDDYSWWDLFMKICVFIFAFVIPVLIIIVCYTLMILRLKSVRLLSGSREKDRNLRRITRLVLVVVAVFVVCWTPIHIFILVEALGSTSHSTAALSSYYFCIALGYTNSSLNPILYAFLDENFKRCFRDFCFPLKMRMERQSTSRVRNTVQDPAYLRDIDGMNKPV
UniProt P35372, whole entry: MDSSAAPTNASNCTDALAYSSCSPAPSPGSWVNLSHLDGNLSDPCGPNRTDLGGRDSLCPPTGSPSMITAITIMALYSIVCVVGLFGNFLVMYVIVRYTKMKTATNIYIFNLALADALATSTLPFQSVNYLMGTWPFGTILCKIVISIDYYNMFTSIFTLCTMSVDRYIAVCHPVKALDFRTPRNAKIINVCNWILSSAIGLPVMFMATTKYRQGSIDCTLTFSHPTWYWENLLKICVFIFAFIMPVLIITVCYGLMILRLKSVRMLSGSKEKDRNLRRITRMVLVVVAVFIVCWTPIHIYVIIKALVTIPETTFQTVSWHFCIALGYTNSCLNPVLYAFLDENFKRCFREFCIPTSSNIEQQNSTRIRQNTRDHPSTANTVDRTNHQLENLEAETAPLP
UniProt P18089, whole entry: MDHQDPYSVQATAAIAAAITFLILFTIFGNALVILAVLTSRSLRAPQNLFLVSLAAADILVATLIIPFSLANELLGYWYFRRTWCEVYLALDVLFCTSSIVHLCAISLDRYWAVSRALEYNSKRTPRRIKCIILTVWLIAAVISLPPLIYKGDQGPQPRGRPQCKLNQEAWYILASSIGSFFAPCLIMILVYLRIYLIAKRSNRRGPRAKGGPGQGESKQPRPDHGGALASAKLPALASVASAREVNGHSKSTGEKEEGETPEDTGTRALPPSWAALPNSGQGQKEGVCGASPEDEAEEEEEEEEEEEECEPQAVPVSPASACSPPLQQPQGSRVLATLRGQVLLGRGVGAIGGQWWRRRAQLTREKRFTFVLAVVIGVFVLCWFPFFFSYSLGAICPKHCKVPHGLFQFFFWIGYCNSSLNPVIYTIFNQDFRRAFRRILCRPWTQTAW

SMILES strings stand for the structures. Bounds are passed on as bounds.

Assay [1] addresses Alpha-1D adrenergic receptor (Homo sapiens, UniProt P25100). The assay is described as follows: Binding affinity to alpha1D adrenergic receptor (unknown origin) at 10 uM by radioligand displacement assay.
The target of assay [2] is Delta-type opioid receptor (Homo sapiens) (UniProt P41143). The assay is described as follows: Binding affinity to delta opioid receptor (unknown origin) at 10 uM by radioligand displacement assay. A general note: Loss of bound radioactivity is the signal in a displacement assay; it reports binding, not function.
The target of assay [3] is Sodium-dependent noradrenaline transporter (Homo sapiens, UniProt P23975). The assay is described as follows: Binding affinity to NET (unknown origin) at 10 uM by radioligand displacement assay.
In assay [4] the target is Alpha-1B adrenergic receptor (Homo sapiens, UniProt P35368). The experiment in a line: Binding affinity to alpha1B adrenergic receptor (unknown origin) at 10 uM by radioligand displacement assay.
Assay [5] deals with Alpha-2A adrenergic receptor (Homo sapiens, UniProt P08913). The assay is described as follows: Binding affinity to alpha2A adrenergic receptor (unknown origin) at 10 uM by radioligand displacement assay.
The species named for assay [6] is Homo sapiens. The assay is described as follows: Binding affinity to alpha7 adrenergic receptor (unknown origin) at 10 uM by radioligand displacement assay.
Assay [7] deals with T1, Alpha-1A adrenergic receptor (Homo sapiens) (UniProt P35348).
T1 sequence (whole entry): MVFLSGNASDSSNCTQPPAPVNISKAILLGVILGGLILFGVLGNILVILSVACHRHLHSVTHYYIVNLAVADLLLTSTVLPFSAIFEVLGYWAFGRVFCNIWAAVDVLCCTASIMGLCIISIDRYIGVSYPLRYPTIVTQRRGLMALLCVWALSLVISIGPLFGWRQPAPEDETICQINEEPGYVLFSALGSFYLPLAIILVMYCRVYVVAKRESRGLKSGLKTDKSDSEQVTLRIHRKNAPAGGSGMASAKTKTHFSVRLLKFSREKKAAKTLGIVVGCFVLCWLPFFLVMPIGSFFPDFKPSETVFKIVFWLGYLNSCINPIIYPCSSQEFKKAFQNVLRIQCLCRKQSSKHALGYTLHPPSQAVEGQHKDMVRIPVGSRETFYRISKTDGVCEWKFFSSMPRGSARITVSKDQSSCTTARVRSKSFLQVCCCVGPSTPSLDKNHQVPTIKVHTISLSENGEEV
The experiment in a line: Binding affinity to alpha1A adrenergic receptor (unknown origin) at 10 uM by radioligand displacement assay.

The target in assay [8] is 5-hydroxytryptamine receptor 2B (Homo sapiens, UniProt P41595). The assay is described as follows: Binding affinity to 5HT2B receptor (unknown origin) at 10 uM by radioligand displacement assay.
For assay [9], the species on record is Homo sapiens. The assay is described as follows: Binding affinity to Sigma2 opioid receptor (unknown origin) at 10 uM by radioligand displacement assay.
The target of assay [10] is T2, Kappa-type opioid receptor (Homo sapiens, UniProt P41145). The experiment in a line: Potency index, ratio of akuammicine-EC50 to test compound EC50 for agonist activity at human kappa opioid receptor expressed in CHO-K1 cells assessed as inhibition of forskolin-stimulated cAMP accumulation by HitHunter assay based luminescence analysis. Type of assay: functional, cell-based.

Assay [11] is described as follows: Selectivity for kappa opoid receptor (unknown origin) over alpha1A adrenergic receptor (unknown origin).
A short description of assay [12]: Selectivity for kappa opoid receptor (unknown origin) over NET (unknown origin).
Assay [13] can be described thus: Selectivity for kappa opoid receptor (unknown origin) over 5HT7A receptor (unknown origin).
Assay [14] is described as follows: Selectivity for kappa opoid receptor (unknown origin) over alpha1B adrenergic receptor (unknown origin).
A short description of assay [15]: Selectivity for kappa opoid receptor (unknown origin) over 5HT5A receptor (unknown origin).
The target in assay [16] is T2, Kappa-type opioid receptor. The experiment in a line: Agonist activity at kappa opioid receptor (unknown origin) expressed in human U2OS cells assessed as beta arrestin2 recruitment incubated for 30 mins by PathHunter assay. Type of assay: functional, cell-based. To be noted: filed as agonist. (Recruitment of arrestin is a read-out of receptor activation apart from second messengers.)

Assay [17] in a line: Selectivity for kappa opoid receptor (unknown origin) over delta opioid receptor (unknown origin).
A short description of assay [18]: Selectivity for kappa opoid receptor (unknown origin) over mu opioid receptor (unknown origin).
The nature of assay [19]: Selectivity for kappa opoid receptor (unknown origin) over alpha2B adrenergic receptor (unknown origin).
Assay [20] can be described thus: Selectivity for kappa opoid receptor (unknown origin) over 5HT2A receptor (unknown origin).
The nature of assay [21]: Selectivity for kappa opoid receptor (unknown origin) over 5HT3 receptor (unknown origin).
A further assay concerns the target Mu-type opioid receptor (Homo sapiens, UniProt P35372). The assay is described as follows: Binding affinity to mu opioid receptor (unknown origin) at 10 uM by radioligand displacement assay.
Assay [22] can be described thus: Selectivity for kappa opoid receptor (unknown origin) over alpha2C adrenergic receptor (unknown origin).
Assay [23] in a line: Selectivity for kappa opoid receptor (unknown origin) over Sigma2 opioid receptor (unknown origin).
A short description of assay [24]: Selectivity for kappa opoid receptor (unknown origin) over alpha2A adrenergic receptor (unknown origin).
The target in assay [25] is Alpha-2B adrenergic receptor (Homo sapiens, UniProt P18089). The assay is described as follows: Binding affinity to alpha2B adrenergic receptor (unknown origin) at 10 uM by radioligand displacement assay.
The nature of assay [26]: Selectivity for kappa opoid receptor (unknown origin) over 5HT2B receptor (unknown origin).
A short description of assay [27]: Selectivity for kappa opoid receptor (unknown origin) over hERG. For orientation: hERG is a cardiac potassium channel; its block is linked to QT prolongation.
Assay [28] can be described thus: Selectivity for kappa opoid receptor (unknown origin) over alpha1D adrenergic receptor (unknown origin).
Assay [29] in a line: Selectivity index, ratio of Ki for mu opioid receptor (unknown origin) expressed in CHO cell membrane to Ki for kappa opioid receptor (unknown origin) expressed in CHO cell membrane. Type of assay: cell-based.
Assay [30] is described as follows: Selectivity for kappa opoid receptor (unknown origin) over alpha7 adrenergic receptor (unknown origin).

With `C/C=C1/CN2CC[C@]34C(=C(C(=O)OC)[C@H]1C[C@H]23)Nc1ccccc14` [AKUAMMICINE], the Activity (in assay [1]; in [2]; in assay [3]; in assay [4]; in assay [5]; in the assay listed under Homo sapiens [6]) was under 50% each time. In addition, the Activity (in assay [7]; in [8]; in the assay listed under Homo sapiens [9]) was under 50% throughout.

Regarding `C/C=C1/CN2CC[C@]34C(=C(C(=O)OC)[C@H]1C[C@H]23)Nc1ccc(I)cc14`, the Ratio EC50 in assay [10] (filed as agonist) amounted to 200. Further, the Selectivity ratio in assay [11], in assay [12], in assay [13], in assay [14], in assay [15] and in [17] was over 200 in each case. The Selectivity ratio in [18], in assay [19], in assay [20], in [21], in [22] and in [23] was over 200 each time. The Selectivity ratio in [24], in [26], in assay [27], in [28] and in assay [30] was over 200 each time. In addition, the Activity in assay [2] was under 50%; in [16], “Active; More Efficacious Than U50488”; at Mu-type opioid receptor it was under 50%; in assay [25] it was under 50%. In addition, the Ratio Ki in assay [29] came to 40000.

Turning to `C/C=C1/CN2CC[C@]34C(=C(C(=O)OC)[C@H]1C[C@H]23)Nc1ccc(-c2ccoc2)cc14`, in [10], the Ratio EC50 was over 1300.
